Sampled rows, rich in hits. Any-hit rate of the full collection: about 3.7%.
Nrf2 ARE act = activators of Nrf2 (ARE) signaling; hit rate 0.31% among 410,000; Potency, µM (series often up to 46.1 µM), for the others: at the highest dose activation, hits mostly activators; AID 624171; AREc32 ARE-luciferase reporter (MCF7-derived line), luminescence, 24 h; note: potency is the fitted concentration of half-maximal effect; % of control where 0% means no effect; nearly all actives have a fitted effect of over 65% in size
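Nrf2 activation is followed as ARE-luciferase induction in the AREc32 line after one day of compound treatment; luminescence is read with Steady-Glo.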
Nrf2 inh = inhibitors of Nrf2 signaling | AID 504444 | Potency, µM (highest dose often 46 µM), inactives show at the top dose activity change, negative = inhibition, hits mostly inhibitors | A549 ARE-Fluc reporter, luciferase luminescence, 18-24 h | hit rate 2.1% among 360,000; note: potency is the fitted concentration of half-maximal effect; % is set by controls: 0 for no effect and ±100 for the full control effect; nearly all actives have a fitted effect of over 60% in size
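A549 ARE_Fluc cells (5000/well, 5% FBS OPTI-MEM) pre-incubated 2 h, then treated with compounds 18-24 h at 37C/5% CO2 in concentration-response. CellTiter-Fluor viability read first; BugLite luciferase luminescence after 15 min at room temperature gives Nrf2 activity.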
A549 viability = kills or reduces viability of A549 cells in Nrf2 counter-screen. Potency, µM (doses to about 46 µM), for inactives: at the highest dose activity change, negative = cytotoxicity, most hits filed as inhibitors. hit rate 0.16% among 390,000. A549 ARE-Fluc cells, CellTiter-Fluor viability, 18-24 h; note: potency is the fitted concentration of half-maximal effect; % is set by controls: 0 for no effect and ±100 for the full control effect
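Cytotoxicity counterscreen: CellTiter-Fluor fluorescence was measured in A549 ARE_Fluc cells after 18-24 h of compound exposure in a concentration series. The subsequent BugLite luminescent read reports ARE-luciferase activity.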
ClpP mod = qHTS Assay for Activators of ClpP; hit rate 1.9% among 340,000; Potency, µM (top dose mostly 57.5 µM), inactives show top-dose activity change, negative = active; AID 651965, 2013; ATP-dependent Clp protease proteolytic subunit (Bacillus subtilis (strain 168)), P80244; purified B. subtilis ClpP, FRET peptide cleavage, 20 min; active = well fitted falling curve with a large enough effect; inconclusive = small, poorly fitted or top-dose-only effect; inactive = no such curve, though single readings can be large or run the other way; note: potency is the fitted concentration of half-maximal effect; the source files actives as falling curves though it sought activators and does not explain the sign; nearly all actives have a fitted effect of over 65% in size
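Buffer: 100 mM Tris/HCl pH8, 100 mM KCl, 0.05% low protease BSA, 2.5% glycerol, 0.01% Tween-20. ClpP 10 microg/mL final; 20 min RT; delta FRET normalized to ADEP and DMSO controls.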
p53 reactivator = restores transcriptional activity of mutant p53. H1299 p53-A138V BP100-luciferase reporter, luminescence, 24 h. Potency, µM (series often up to 92.2 µM), without a hit: top-dose activity change, positive = activation, actives largely listed as activators. hit rate 0.063% among 320,000. AID 504706; note: potency is the fitted concentration of half-maximal effect; % of control where 0% means no effect; nearly all actives have a fitted effect of over 45% in size
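p53-null H1299 cells stably carrying temperature-sensitive p53-A138V and a BP100-luciferase reporter were pinned with compounds (4-point, 1:5 series) and held 24 hrs at 37 deg C. Luminescence was read 10 min after detection reagent.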
miR-21 FLuc = raises the signal of a miR-21 reporter | HeLa miR-21 FLuc reporter, luciferase, 48 h | Potency, µM (doses to about 38.3 µM), without a hit: at the top dose reporter change, positive = more light | 340,000 tested, under 10 active | AID 2288; active = well fitted rising curve with a large enough effect; inconclusive = small, poorly fitted or top-dose-only effect; inactive = no such curve, though single readings can be large or run the other way;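 note: % of control where 0% means no effect; miR-21 action dims this reporter so a rising signal means less miR-21 action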
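Luminescence from a firefly luciferase reporter carrying a miR-21 binding site downstream, stably expressed under a CMV promoter in HeLa cells that make miR-21 endogenously, reports miRNA modulation after 48 h compound exposure up to approximately 40uM final.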
* marks the source's active call; other numbers are inactive results; ? = inconclusive; / = no result. Unless noted, calls come from the whole dose curve; as a rule, active = well fitted curve in the direction sought with a large enough effect; inconclusive = small, poorly fitted or top-dose-only effect, or another doubt; inactive = no such curve, though single readings can be large; an effect the other way counts as inactive or inconclusive.

Short forms: A = Nrf2 ARE act; B = Nrf2 inh; C = A549 viability; D = ClpP mod; E = p53 reactivator; F = miR-21 FLuc
O=C(Nc1cccc(S(=O)(=O)N2CCOCC2)c1)c1cc2ccccc2o1
  A: 3% | B: ? | C: ? | D: / | E: 0% | F: 0%

O=C(Nc1cccc(S(=O)(=O)C(F)F)c1)c1ccc(S(=O)(=O)N2CCCCC2)cc1
  A: 1% | B: 16µM* | C: ? | D: / | E: -4% | F: 18%

O=C(Nc1cccc(S(=O)(=O)N2CCCCC2)c1)c1ccc(S(=O)(=O)C(F)F)cc1
  A: 0% | B: 18µM* | C: -19% | D: -4% | E: 9% | F: 27%

Cn1c(=O)c2nc(SCC(=O)Nc3cc(Cl)cc(Cl)c3)n(C)c2n(C)c1=O
  A: 0% | B: / | C: 15% | D: -3% | E: / | F: 0%

CCOc1ccc(NC(=NCc2ccc3c(c2)OCO3)SC2CC(=O)N(c3ccccc3)C2=O)cc1 (stereo not given)
  A: -1% | B: -14% | C: -9% | D: -2% | E: 10% | F: -2%

CCOc1ccc(NC(=NCc2ccc3c(c2)OCO3)SC2CC(=O)N(c3ccc(OCC)cc3)C2=O)cc1 (stereo not given)
  A: 0% | B: 15µM* | C: -27% | D: -1% | E: ? | F: -22%

Cc1ccc(C)c(CN2C(=O)c3ccccc3Sc3ccc(C(=O)NCc4ccco4)cc32)c1
  A: 0% | B: / | C: 0% | D: -3% | E: / | F: 10%

Cc1c(C(=O)O)sc2nc(-c3cccs3)cc(C(F)(F)F)c12
  A: 19% | B: ? | C: -2% | D: / | E: 0% | F: 4%

CC(=O)c1sc2nc(-c3cccs3)cc(C(F)(F)F)c2c1N
  A: 6.3µM* | B: 10% | C: 12% | D: -9% | E: -1% | F: -4%

Cc1c(Cl)cccc1NC(=O)CSc1ncc(S(=O)(=O)c2ccc(C(C)C)cc2)c(=O)[nH]1
  A: -3% | B: 1% | C: 4% | D: -5% | E: / | F: 4%

O=c1oc2c3c4c(cc2c(C(F)(F)F)c1CCN1CCOCC1)CCCN4CCC3
  A: -1% | B: 5% | C: 4% | D: -3% | E: -10% | F: -8%

CC(C)c1cc(=O)oc2c3c4c(cc12)CCCN4CCC3
  A: 0% | B: -16% | C: ? | D: 28µM* | E: -2% | F: -9%

Cc1cc(=O)oc2c3c4c(cc12)OCCN4CCC3
  A: 0% | B: -2% | C: ? | D: 22µM* | E: -5% | F: -18%

COc1ccc(N2CCN(C(=S)Nc3ccc(C)cc3)CC2)cc1
  A: 0% | B: 0% | C: -18% | D: -1% | E: 1% | F: 0%

COc1ccc(N2CCN(C(=S)Nc3cccc(C)c3C)CC2)cc1
  A: 0% | B: 26µM* | C: ? | D: 2% | E: 1% | F: 0%

Continued:
Short forms: A = Nrf2 ARE act; B = Nrf2 inh; C = A549 viability; D = ClpP mod; E = p53 reactivator; F = miR-21 FLuc
CCc1ccccc1NC(=S)N1CCN(c2cccc(OC)c2)CC1
  A: 0% | B: -8% | C: -3% | D: 10µM* | E: / | F: -2%

Cc1nn(CC(C)C)c(Cl)c1C(=O)NCC1CCCO1 (stereo not given)
  A: 0% | B: / | C: / | D: 1% | E: / | F: /

Nc1nonc1C(=O)NCCNc1ncccc1[N+](=O)[O-]
  A: 2% | B: 18µM* | C: ? | D: / | E: 4% | F: -15%

Nc1nonc1C(=O)NCCNc1ccc([N+](=O)[O-])cn1
  A: 1% | B: 13% | C: 2% | D: / | E: 0% | F: 5%

COc1ccc(C(=O)Nc2scc(-c3ccc(Cl)cc3Cl)c2C(N)=O)cc1
  A: 0% | B: 21% | C: -6% | D: 28µM* | E: 24% | F: -29%

O=C(COC(=O)c1cc([N+](=O)[O-])ccc1N1CCOCC1)Nc1ccc(Cl)cc1
  A: 0% | B: 18µM* | C: ? | D: -3% | E: -14% | F: 14%

NC(=O)c1ccc(NC(=O)COC(=O)c2cc([N+](=O)[O-])ccc2N2CCOCC2)cc1
  A: 0% | B: -15% | C: -18% | D: -3% | E: -4% | F: /

COc1ccc2c(Sc3ccc(Cl)cc3)c(C(=O)NCCCN3CCCCC3)[nH]c2c1
  A: -3% | B: ? | C: 2% | D: -10% | E: / | F: 19%

O=[N+]([O-])c1cccc(-c2nc(-c3ccccc3)no2)c1
  A: 4µM* | B: ? | C: 15% | D: / | E: 8% | F: -11%

O=[N+]([O-])c1cccc(-c2noc(-c3ccco3)n2)c1
  A: 7.1µM* | B: ? | C: 18% | D: 1% | E: 3% | F: -36%

COC(=O)C1=C[C@@H](C(=O)OC)[C@@H]2C3=C(C(=O)[C@@]2(C)NC(=O)c2ccccc2)[C@H](C)[C@@H]2C(=O)N(Cc4ccccc4)C(=O)[C@@H]2[C@@H]3C1
  A: / | B: 11% | C: -1% | D: / | E: / | F: /

CCCC(=O)Nc1cc(-c2nnc3c4ccccc4c(C)nn23)ccc1C
  A: 8% | B: 4% | C: -3% | D: -8% | E: / | F: -14%

Cn1ncc2ccc(-c3ccc4ncnc(NCc5cccs5)c4c3)cc21
  A: / | B: -10% | C: -2% | D: / | E: / | F: /

C=CC[n+]1c(-c2ccc(Cl)cc2Cl)csc1Nc1ccc(NC(C)=O)cc1
  A: -2% | B: 12µM* | C: -15% | D: / | E: -9% | F: ?

COc1ccccc1-c1cc2nc(C)c(CCC(=O)Nc3ccc(Br)c(C)c3)c(C)n2n1
  A: -1% | B: ? | C: -1% | D: 4% | E: / | F: 24%

Another view of 3 compounds above:
structure | Nrf2 ARE act | Nrf2 inh | A549 viability | ClpP mod | p53 reactivator | miR-21 FLuc
Cn1ncc2ccc(-c3ccc4ncnc(NCc5cccs5)c4c3)cc21 | / | -10% | -2% | / | / | /
C=CC[n+]1c(-c2ccc(Cl)cc2Cl)csc1Nc1ccc(NC(C)=O)cc1 | -2% | 12µM* | -15% | / | -9% | ?
COc1ccccc1-c1cc2nc(C)c(CCC(=O)Nc3ccc(Br)c(C)c3)c(C)n2n1 | -1% | ? | -1% | 4% | / | 24%

(list continues)
Short forms: A = Nrf2 ARE act; B = Nrf2 inh; C = A549 viability; D = ClpP mod; E = p53 reactivator; F = miR-21 FLuc
O=C(CSc1nnc(CCc2ccccc2)n1-c1ccc(Cl)cc1)c1ccccc1
  A: 4% | B: 23µM* | C: ? | D: 1% | E: 11% | F: -3%

O=S(Cc1ccc(Br)cc1)Cc1nnc(SCc2ccc(Cl)cc2)n1-c1ccccc1 (stereo not given)
  A: 3% | B: 16µM* | C: ? | D: 1% | E: 13% | F: ?

Cn1c(CS(=O)Cc2c(Cl)cccc2Cl)nnc1SCc1ccc(Cl)cc1 (stereo not given)
  A: 4% | B: 1% | C: -1% | D: -1% | E: -5% | F: 13%

COc1ccc(-n2c(CCc3ccccc3)nnc2SCC(=O)c2ccc(Cl)cc2)cc1
  A: 0% | B: ? | C: ? | D: -1% | E: 10% | F: -2%

O=S(Cc1ccc(Br)cc1)Cc1nnc(SCc2c(F)cccc2Cl)n1-c1ccccc1 (stereo not given)
  A: 3% | B: ? | C: ? | D: 32µM* | E: -4% | F: 24%

C[n+]1cccc(Br)c1
  A: / | B: / | C: / | D: -1% | E: / | F: /

OCC(O)C[n+]1cccc(Br)c1 (stereo not given)
  A: / | B: / | C: / | D: 0% | E: / | F: /

CC(C)c1nc2sc3c(=O)n(N)cnc3c2c2c1COC(C)(C)C2
  A: 0% | B: 2% | C: 0% | D: 16µM* | E: -6% | F: -5%

COC(=O)c1ccc(OCC2c3cc(OC)c(OC)cc3CCN2C(=O)COc2ccc(Cl)cc2)cc1 (stereo not given)
  A: -1% | B: / | C: -1% | D: -1% | E: / | F: 18%

OC(CNCc1ccco1)COc1ccccc1 (stereo not given)
  A: 0% | B: 1% | C: 6% | D: 14µM* | E: 3% | F: -8%

O=C(CCCn1c(=O)[nH]c2ccccc2c1=O)N1CCN(c2ccccc2)CC1
  A: -1% | B: / | C: -3% | D: -6% | E: / | F: 7%

Cc1c(C)c2cc(Cl)c(O)c(CN3CCCC(C)C3)c2oc1=O (stereo not given)
  A: -1% | B: 19% | C: 21% | D: 6.3µM* | E: -9% | F: -3%

O=C1c2ccccc2C(=O)N1c1cccc(=O)[nH]1
  A: / | B: -15% | C: -7% | D: / | E: / | F: /

Screening data (PubChem BioAssay)
